The values that follow come from ChEMBL document CHEMBL5108074 (J Med Chem, 2022).

The chains behind the UniProt entries cited, without tags or fusion partners. Residues count along the entry.
UniProt P03952, 20-390 limits assumed: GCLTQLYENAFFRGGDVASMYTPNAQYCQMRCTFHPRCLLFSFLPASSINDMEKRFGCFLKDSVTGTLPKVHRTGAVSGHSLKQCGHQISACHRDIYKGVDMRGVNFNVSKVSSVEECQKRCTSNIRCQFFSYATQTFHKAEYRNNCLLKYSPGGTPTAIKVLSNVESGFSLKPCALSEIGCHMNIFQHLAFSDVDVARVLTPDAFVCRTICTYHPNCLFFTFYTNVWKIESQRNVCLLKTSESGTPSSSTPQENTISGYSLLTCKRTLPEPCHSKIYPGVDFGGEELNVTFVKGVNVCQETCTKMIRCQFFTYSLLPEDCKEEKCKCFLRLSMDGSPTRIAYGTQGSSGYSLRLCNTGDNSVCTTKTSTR
UniProt P03952, 391-638 limits assumed: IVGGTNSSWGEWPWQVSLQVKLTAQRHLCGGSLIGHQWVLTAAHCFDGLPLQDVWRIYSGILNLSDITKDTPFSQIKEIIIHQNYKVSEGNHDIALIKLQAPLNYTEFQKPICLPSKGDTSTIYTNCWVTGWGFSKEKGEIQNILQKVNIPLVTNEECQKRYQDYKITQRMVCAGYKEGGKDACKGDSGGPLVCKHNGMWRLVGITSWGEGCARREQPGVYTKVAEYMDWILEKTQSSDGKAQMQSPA

Broadly, the IC50 is the concentration at which inhibition is half-maximal.

The target of the assay is Plasma kallikrein (Homo sapiens, UniProt P03952). The format is cell-free.

`COCc1nn(Cc2ccc(Cn3ccccc3=O)cc2)cc1C(=O)NCc1c(Cl)ccc(OC)c1F`: inhibition was half-maximal at 5.5 nM (IC50). In other words, the single-digit nanomolar range.
